# Data: patent US8354403B2, “Pyrrolidine derived beta 3 adrenergic receptor agonists” (Merck Sharp & Dohme Corp., priority 2009, dated 2013)
# Protein sequences, listed by entry. Tags and fused reporters are not part of them.
# UniProt P13945, whole entry: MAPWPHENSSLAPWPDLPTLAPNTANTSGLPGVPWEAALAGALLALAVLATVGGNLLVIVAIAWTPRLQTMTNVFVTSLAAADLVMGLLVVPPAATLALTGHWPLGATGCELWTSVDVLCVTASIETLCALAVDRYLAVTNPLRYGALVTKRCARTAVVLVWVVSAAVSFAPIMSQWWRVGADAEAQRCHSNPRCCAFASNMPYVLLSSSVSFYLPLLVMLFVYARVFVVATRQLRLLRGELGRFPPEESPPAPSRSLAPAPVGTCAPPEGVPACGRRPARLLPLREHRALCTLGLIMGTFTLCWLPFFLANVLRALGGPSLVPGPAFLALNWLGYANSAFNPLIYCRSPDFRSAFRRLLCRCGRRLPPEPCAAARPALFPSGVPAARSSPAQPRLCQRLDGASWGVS
# Target: human β3 adrenergic receptor (Homo sapiens, UniProt P13945)
# Assay: Beta-3 agonist in vitro functional assay: cAMP production (LANCE TR-FRET) in CHO cells stably transfected with the cloned β3 receptor
# Format: cell-based
# Conditions: read-out: Human β3 agonist functional activity; Table 12; human β3 functional activity given as ranges
structure (smiles),measurement,value
"CC(c1ccn[nH]1)N1CCN(C(=O)c2ccc(C[C@@H]3CC[C@H]([C@H](O)c4ccccc4)N3)cc2)CC1 (single isomer, unassigned)",EC50,1 to 9.9 nM
"O=C(c1ccc(C[C@@H]2CC[C@H]([C@H](O)c3ccccc3)N2)cc1)N1CCN(C2CCCc3cccnc32)CC1 (single isomer, unassigned)",EC50,10 to 99.9 nM
